Test system: Salmonella typhimurium (TA98, TA100)
Test: Mini-AMES assay
Conditions: TA100, S9 no

MNNG
AMES result (positive/negative): positive
